Measurements published in patent US5668152A, “Protein kinase C inhibitors” (priority 1995, dated 1997).

Molecular target: protein kinase C gamma (Homo sapiens, UniProt P05129)
Assay: PKC Enzyme assay, gamma isozyme
Format: biochemical
Conditions: 30 μM ATP, 30° C., 10 minutes
Experimental: PKC enzymes=alpha, beta I, beta II, gamma, delta, epsilon, eta and zeta.
Assay components in a total volume of 250 μL are the following:
Vesicles consisting of 120 μg/mL phosphatidylserine (Avanti Polar Lipids) and sufficient diacylglycerol (Avanti Polar Lipids) to activate the enzyme to maximum activity in 20 mM HEPES buffer (Sigma, St. Louis, Mo.), pH 7.5, 940 μM calcium chloride (Sigma, St. Louis, Mo.) for assaying the alpha, beta I, beta II and gamma enzyme only, 1 mM EGTA for all the enzymes, 10 mM magnesium chloride (Sigma, St. Louis, Mo.) and 30 μM (gamma-32P) ATP (DuPont). For all the enzymes either histone type HL (Worthington) or myelin basic protein is used as substrate. The assay is started by addition of protein kinase C enzyme incubated at 30° C. for 10 minutes and stopped by adding 0.5 mL of cold trichloroacetic acid (Amresco) followed by 100 μL of 1 mg/mL bovine serum albumin (Sigma, St. Louis, Mo.). The precipitate is collected by vacuum filtration on glass fiber filters employing a TOMTEC™ filtration system and quantified by counting in a beta scintillation counter.

`Cn1cc(C2=C(c3cn(C4CCNCC4)c4ccccc34)C(=O)NC2=O)c2ccccc21` [Example 52] was tested, and the pIC50 was 5.70.

pIC50: −log10 of the molar value.
